This passage reports inhibition results from PubChem BioAssay AID2521 (Sanford-Burnham Center for Chemical Genomics, 2010).

Chains of the proteins cited; added tags and fusions are not shown. Lines headed by an entry give the natural chain unless they say otherwise; changes in a name come on top.
UniProt P35414: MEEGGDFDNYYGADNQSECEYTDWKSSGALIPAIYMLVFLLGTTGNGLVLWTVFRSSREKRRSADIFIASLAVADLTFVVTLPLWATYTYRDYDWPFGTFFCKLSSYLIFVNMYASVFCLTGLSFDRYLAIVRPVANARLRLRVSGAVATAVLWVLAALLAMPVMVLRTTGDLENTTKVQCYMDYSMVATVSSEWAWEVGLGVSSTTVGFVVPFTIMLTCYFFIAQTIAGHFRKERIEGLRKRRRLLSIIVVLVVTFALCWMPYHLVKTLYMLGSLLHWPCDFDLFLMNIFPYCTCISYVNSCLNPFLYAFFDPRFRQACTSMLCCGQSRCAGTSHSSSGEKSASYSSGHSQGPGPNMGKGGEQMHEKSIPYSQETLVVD

Usually inhibition stands for the drop in the measured response relative to a control, in per cent.

Each structure is given as a SMILES string. The list shows a part of the results, in another mix than the full data. Active and inactive are the calls of the source.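 How the source made its calls: active means inhibition above about 40% at 20 µM (limit read from the data); inactive means the rest.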

For this assay, the target named is Apelin receptor (Homo sapiens) (UniProt P35414). The experiment in a line: blockade of apelin-induced APJ beta-arrestin recruitment – CHO-K1 cells, beta-arrestin complementation, luminescence, primary screen (AID 2521).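 Further: cells challenged with 10 nM apelin-13 agonist together with compound; plate controls were apelin-13 plus DMSO wells for no effect and DMSO wells lacking apelin-13 for full effect.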 Particulars: at 20 µM, stronger effect = higher value. A general note: Recruitment of arrestin is a read-out of receptor activation apart from second messengers.
`C[C@H]1OP(=O)(Oc2ccccc2)[C@H](O)[C@H](O)[C@H]1N=[N+]=[N-]` (stereo partly specified): the inhibition is inactive: 10.2%.

On to `O=P(Nc1nc2ccccc2s1)(c1ccccc1)c1ccccc1`, for which the inhibition is inactive: 1.54%.

Turning to `CN(C)C1(CNC(=O)c2ccc(Cl)c(S(N)(=O)=O)c2)CCCCC1`, the inhibition was inactive: -22.3%.

As for `O=P(Nc1ccccn1)(c1ccc(Br)cc1)c1ccc(Br)cc1`, the inhibition is inactive: -9.69%.

As to `O=C(OC1CN2CCC1CC2)c1cccc(Cl)c1` (stereo unspecified), the inhibition is inactive: 6.66%.

Regarding `C(Cc1nn[nH]n1)Cc1nn[nH]n1`, the inhibition is inactive: 3.39%.

As to `Nc1ccc([As](=O)(O)c2ccc([N+](=O)[O-])cc2)cc1`, the inhibition was inactive: -0.256%.

As to `O=[As](O)(c1ccccc1)c1ccc(O)cc1`, the inhibition is inactive: 13.4%.

In the case of `O=[N+]([O-])c1ncn(CCn2cnc([N+](=O)[O-])n2)n1`, the inhibition was inactive: -38.9%.

On to `c1nnnn1CCn1cnnn1`, for which the inhibition is inactive: 3.79%.

For `O=P(Nc1nccs1)(c1ccccc1)c1ccccc1`, the inhibition was inactive: 14%.

On to `CC(C)C(=O)NC(Sc1ccccc1)C(Cl)(Cl)Cl` (stereo unspecified), for which the inhibition was inactive: 2.84%.

Regarding `CC(C)(C)C(=O)NC(Sc1ccccc1)C(Cl)(Cl)Cl` (stereo unspecified), the inhibition is inactive: -32.1%.

For the molecule `CCOc1ccc(C2=NCC(CBr)S2)cc1` (stereo unspecified), the inhibition was inactive: 15.9%.

For the molecule `O=P1(Nc2nc3ccc(Cl)cc3s2)COc2ccccc2O1` (stereo unspecified), the inhibition is inactive: 5.67%.

As for `CC(=O)Nc1ccc(Oc2c([N+](=O)[O-])cc([N+](=O)[O-])cc2[N+](=O)[O-])cc1`, the inhibition was inactive: 8.89%.

With `CC(=O)Nc1ccc([As](=O)(O)O)c(O)c1`, the inhibition is inactive: 10.8%.

`C[C@H]1OP(=O)(Oc2ccccc2)C[C@@H]2O[C@@H]21` (stereo partly specified): the inhibition was inactive: 11.1%.

For `C[C@@H]1C=CCP(=O)(Oc2ccccc2)O1` (stereo partly specified), the inhibition was inactive: 5.25%.

For the molecule `Cc1ccccc1CN(C)C(=O)COC(=O)C(O)(c1ccccc1)c1ccccc1`, the inhibition is inactive: 0.87%.

As to `CC(=O)c1ccc(N2CC2c2ccncc2)cc1` (stereo unspecified), the inhibition is inactive: -21.1%.

With `Cc1ccc(NP(=O)(Oc2cccc(C)c2)Oc2cccc(C)c2)nc1`, the inhibition was inactive: 4.28%.

For `CCOC(=O)NC(Sc1ccccc1)C(Cl)(Cl)Cl` (stereo unspecified), the inhibition was inactive: 7.5%.

Turning to `c1ccc(-c2nn[nH]n2)c(-c2nn[nH]n2)c1`, the inhibition was inactive: -16.4%.

Take `O=C(NC1CCS(=O)(=O)C1)NP(=S)(Oc1ccccc1)Oc1ccccc1` (stereo unspecified): the inhibition was inactive: -11.3%.

`CCNC(=S)/N=C(\N)N[N+](=O)[O-]`: the inhibition was inactive: 4.19%.

As to `CN(C)C(=O)Oc1noc2ccccc12`, the inhibition was inactive: 2.83%.

With `CC(NC(=O)COC(=O)C(O)(c1ccccc1)c1ccccc1)c1ccccc1` (stereo unspecified), the inhibition is inactive: -14.7%.

For `Cc1ccccc1OP(=O)(Nc1ccccn1)Oc1ccccc1C`, the inhibition is inactive: 9.62%.

Turning to `CCC(=O)N1C2C3N(C(=O)CC)C1C1N(C(=O)CC)C(C(N1C(=O)CC)N3C(=O)CC)N2C(=O)CC`, the inhibition was inactive: -14.9%.

Turning to `O=C(OC1CN2CCC1CC2)c1ccccc1` (stereo unspecified), the inhibition is inactive: 1.23%.

Turning to `CC(=O)NC(SC(=S)N(CC(C)C)CC(C)C)C(Cl)(Cl)Cl` (stereo unspecified), the inhibition is inactive: 23.6%.

`Cc1ccc(OP(=O)(Nc2ccccn2)Oc2ccc(C)cc2)cc1`: the inhibition was inactive: 7.5%.

With `COC(=O)c1cc2c(s1)N=C(c1ccccc1)N(C)P2(=O)N1CCOCC1` (stereo unspecified), the inhibition was inactive: 12.4%.

Take `CN(C(=O)Cc1ccc(Cl)c(Cl)c1)[C@H]1CCCC[C@@H]1N1CCCC1`: the inhibition was inactive: 4.65%.

In the case of `Cc1ccc(NP(=O)(Oc2ccccc2F)Oc2ccccc2F)nc1`, the inhibition is inactive: 5.07%.

As for `Cc1cc(SC(NC(=O)c2ccc(F)cc2)C(Cl)(Cl)Cl)ncn1` (stereo unspecified), the inhibition was inactive: 2.03%.

For the molecule `CCOP(=O)(Nc1ccccc1)OCC`, the inhibition was inactive: 13%.

Take `O=P(Nc1nc2ccc(Cl)cc2s1)(c1ccccc1)c1ccccc1`: the inhibition is inactive: 26.5%.

Take `CC(=O)Nc1ccc([As](=O)(O)O)cc1`: the inhibition is inactive: 0.278%.

Consider `O=C(O)c1ccccc1[As](=O)(O)O`, for which the inhibition was inactive: -15.4%.

Consider `CCN(N=Nc1nonc1N)c1nonc1N`, for which the inhibition is inactive: 14.8%.

Turning to `O=[N+]([O-])c1cc([N+](=O)[O-])c(CCN2CCOCC2)c([N+](=O)[O-])c1`, the inhibition was inactive: -21.4%.

Take `CN1CCCC(OC(=O)C(c2ccccc2)c2ccccc2)C1` (stereo unspecified): the inhibition was inactive: -19.1%.

Take `Clc1ccc(Cl)c(NC2=NCC(CBr)S2)c1` (stereo unspecified): the inhibition was inactive: 15.5%.

Turning to `Cc1ccc(OP(=O)(Nc2nccs2)Oc2ccc(C)cc2)cc1`, the inhibition was inactive: 10.5%.

Regarding `COc1ccccc1OP(=O)(Nc1ccc(C)cn1)Oc1ccccc1OC`, the inhibition is inactive: 2.81%.

`Cc1ccc(N/C(=N/P(=O)(N2CCOCC2)N2CCOCC2)N2CCOCC2)cc1`: the inhibition was inactive: -3.95%.

Take `CN(C(=O)Cc1ccc(Cl)c(Cl)c1)[C@H]1CCCC[C@H]1N1CCCC1`: the inhibition is inactive: -0.295%.

As for `NC(=O)c1cc([N+](=O)[O-])cc([N+](=O)[O-])c1N`, the inhibition is inactive: -24.9%.

Take `O=C(NC(Sc1ccncn1)C(Cl)(Cl)Cl)c1ccccc1` (stereo unspecified): the inhibition is inactive: -4.97%.

For `Cc1c2non([O-])c-2c(C)[n+](=O)[n+]1[O-]`, the inhibition was inactive: -16.8%.

Take `Oc1ccccc1CNc1ccccn1`: the inhibition is inactive: 13.2%.

For the molecule `Nc1cc(N)c2nonc2c1[N+](=O)[O-]`, the inhibition is inactive: -4.93%.

For the molecule `CC(C)CC(=O)NC(Sc1ccc(Cl)cc1)C(Cl)(Cl)Cl` (stereo unspecified), the inhibition is inactive: -4.18%.

With `O=[N+]([O-])c1cc([N+](=O)[O-])c(CCNc2ccccc2)c([N+](=O)[O-])c1`, the inhibition was inactive: 9.7%.

Take `CCc1nc2c(n1)c1c(non1O)c1c2no[n+]1[O-]`: the inhibition was inactive: -6.56%.

Take `Cc1ccc(NP(=O)(Oc2ccccc2)Oc2ccccc2)nc1`: the inhibition is inactive: -0.161%.

As to `CC(=O)N1C2C3N(C(C)=O)C1C1N(C(C)=O)C(C(N1C(C)=O)N3C(C)=O)N2C(C)=O`, the inhibition was inactive: 6.98%.

With `O=[N+]([O-])c1cccc2n[nH]nc12`, the inhibition was inactive: -18.3%.

Consider `COc1ccc(C2=NCC(CBr)S2)cc1` (stereo unspecified), for which the inhibition is inactive: 7%.

For the molecule `CC1CCN(C(=O)Oc2c(Cl)cc(Cl)c3cccnc23)CC1`, the inhibition was inactive: -2.85%.

With `CN(C)C(=O)OCCc1n(C)cc[n+]1C`, the inhibition was inactive: 12.8%.

On to `CC(C)=N/N=C(\N)N[N+](=O)[O-]`, for which the inhibition was inactive: 14.2%.

In the case of `CCN(/C(=N/P(=O)(N1CCOCC1)N1CCOCC1)N1CCOCC1)c1ccc(OC)cc1`, the inhibition was inactive: -19.7%.

For the molecule `C[N+]1=C2C=CC=CC=C2SC12C([N+](=O)[O-])=CC([N+](=O)[O-])=C[C-]2[N+](=O)[O-]` (stereo unspecified), the inhibition was active: 71.8%.

With `Nc1ccc([As](=O)(O)c2ccc(N)cc2)cc1`, the inhibition is inactive: 5.54%.

With `O=C(Nc1cc([As](=O)(O)O)ccc1O)c1ccccc1`, the inhibition was inactive: 0.845%.

For `O=[N+]([O-])c1cccc(NC2=NCC(CBr)S2)c1` (stereo unspecified), the inhibition is inactive: 9.93%.

Turning to `O=[N+]([O-])c1ncn(CCn2ncnc2[N+](=O)[O-])n1`, the inhibition is inactive: -35.5%.

Take `CC(C)(C)C(=O)NC(Sc1ccncn1)C(Cl)(Cl)Cl` (stereo unspecified): the inhibition is inactive: 7.58%.

With `Cc1cc(SC(NC(=O)c2ccccc2)C(Cl)(Cl)Cl)nc(C(C)C)n1` (stereo unspecified), the inhibition is inactive: -0.633%.

As for `CCCCOc1ccc(C(=O)NCC2(N3CCCCC3)CCCCC2)cc1OC`, the inhibition was inactive: 16%.

On to `CCOC(=O)Nc1ccc([As](=O)(O)O)c(O)c1`, for which the inhibition was inactive: -6.11%.

Take `Cc1cc(SC(NC=O)C(Cl)(Cl)Cl)ncn1` (stereo unspecified): the inhibition is inactive: 10.9%.

As to `O=P(Nc1ccccn1)(c1cccc2ccccc12)c1cccc2ccccc12`, the inhibition is inactive: 6.05%.

For the molecule `CCOC(=O)Nc1cccc([As](=O)(O)O)c1`, the inhibition was inactive: 12.7%.

Turning to `O=C(Nc1ccncc1[N+](=O)[O-])c1ccc([N+](=O)[O-])cc1[N+](=O)[O-]`, the inhibition is inactive: -71.7%.

Turning to `O=C(COc1ccccc1)OC1CN2CCC1CC2` (stereo unspecified), the inhibition is inactive: 12.3%.

For `COP1(=S)c2c(C)nn(CCC#N)c2N=C(c2ccc(F)cc2)N1C` (stereo unspecified), the inhibition was inactive: 9.84%.

On to `CCC(C)N(CC(C)C)C(=S)SC(NC(C)=O)C(Cl)(Cl)Cl` (stereo unspecified), for which the inhibition is inactive: -6.26%.

On to `O=C(OC1CN2CCC1CC2)c1cccc([N+](=O)[O-])c1` (stereo unspecified), for which the inhibition is inactive: -11.8%.

Take `CCOC(=O)c1ccc(NC(=O)C(C)(CCl)SC)cc1` (stereo unspecified): the inhibition is inactive: -0.433%.

As for `COc1cc(I)ccc1[As](=O)(O)O`, the inhibition was inactive: -10%.

For `COc1ccc2nc(NP(=O)(c3ccccc3)c3ccccc3)sc2c1`, the inhibition was inactive: -0.142%.

Consider `Cc1c2c(nc3ccccc13)SC(C(Cl)Cl)C2` (stereo unspecified), for which the inhibition was inactive: 1.73%.

Take `Cc1cc(=O)[nH]c(N[N+](=O)[O-])n1`: the inhibition was inactive: 4.67%.

As for `O=C(OC1CN2CCC1CC2)C12CC3CC(CC(C3)C1)C2` (stereo unspecified), the inhibition was inactive: 5.31%.

As to `COc1ccc(N/C(=N/P(=O)(N2CCOCC2)N2CCOCC2)N2CCOCC2)cc1`, the inhibition is inactive: 1.84%.

As to `Cc1ccc(OP(=O)(Nc2ccc([N+](=O)[O-])cn2)Oc2ccc(C)cc2)cc1`, the inhibition is inactive: -17.1%.

Turning to `Cc1ccc2nc3c(c(C)c2c1)CC(C(Cl)Cl)S3` (stereo unspecified), the inhibition is inactive: 5.01%.

Regarding `COc1cc(C(=O)NCC2(N3CCOCC3)CCCCC2)ccc1OCC(C)C`, the inhibition is inactive: 11.1%.

In the case of `O=[As](O)(c1ccc(O)cc1)c1ccccc1O`, the inhibition was inactive: -14.5%.

On to `C[As](=O)(O)c1cccc(C(=O)O)c1`, for which the inhibition is inactive: -8.68%.

`O=[N+]([O-])c1cc([N+](=O)[O-])c(-c2ccn[nH]2)s1`: the inhibition was inactive: -44.4%.

For the molecule `CC(C)NC(=O)NP(=O)(Oc1ccccc1)Oc1ccccc1`, the inhibition is inactive: -3.51%.

Turning to `CCN(CC)C(=S)SC(NC=O)C(Cl)(Cl)Cl` (stereo unspecified), the inhibition was inactive: -5.08%.

As for `O=C(OC1CN2CCC1CC2)c1cccc2[nH]cnc12` (stereo unspecified), the inhibition is inactive: -4.45%.

Consider `ClCCSc1nnc(-c2cccnc2)o1`, for which the inhibition is inactive: -5.39%.

On to `CC(C)c1ccc(OP(=O)(Nc2ccccn2)Oc2ccccc2F)cc1` (stereo unspecified), for which the inhibition is inactive: 13.9%.

Regarding `O=C(O)COc1ccc([As](=O)(O)O)cc1[N+](=O)[O-]`, the inhibition is inactive: -9.13%.
